Screening results (PubChem BioAssay)
PI4K2A block – inhibitors of human PI4K2A | AID 1346378 | activity change, negative = inhibition, % at 76.9 µM | Q9BTU6 | purified PI4K2A, ADP-Glo luminescence, 1 h; active compounds read low | 0.13% of 420,000 active; in the data active = activity change below about -50%; inconclusive = mostly about -30% to -49%;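 note: -100% = wells without enzyme as full effect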
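In this quantitative HTS, ADP production by PI4K2A was quantified luminescently after 1 h at ambient temperature; 100 microM adenosine served as plate-quality control.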
Nrf2 ARE act – activators of Nrf2 (ARE) signaling; AREc32 ARE-luciferase reporter (MCF7-derived line), luminescence, 24 h; Potency, µM (highest dose often 46.1 µM), inactives show at the highest dose activation, actives largely listed as activators; 0.31% of 410,000 active; AID 624171; note: potency is the fitted concentration of half-maximal effect; % of control where 0% means no effect; nearly all actives have a fitted effect of over 65% in size
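Quantitative high-throughput format: AREc32 reporter cells, 1000 per well, received compound by pin transfer and were incubated 24 hr at 37 deg C, 5% CO2, before Steady-Glo luminescence detection.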
miR-21 FLuc – raises the signal of a miR-21 reporter | HeLa miR-21 FLuc reporter, luciferase, 48 h | Potency, µM (doses to about 38.3 µM), without a hit: at the top dose reporter change, positive = more light | 340,000 tested, under 10 active | AID 2288; active = well fitted rising curve with a large enough effect; inconclusive = small, poorly fitted or top-dose-only effect; inactive = no such curve, though single readings can be large or run the other way;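 note: % of control where 0% means no effect; miR-21 action dims this reporter so a rising signal means less miR-21 action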
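HeLa cells endogenously expressing miR-21, stably carrying CMV-driven firefly luciferase with a downstream miR-21 binding site, 2000 cells/well. Titrations up to approximately 40 uM, 48 hours; luciferase luminescence read.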
GALK inh – galactokinase (human) inhibition; 0.007% of 270,000 active; P51570; Purified GALK, Kinase-Glo residual ATP luminescence; AID 1868; Potency, µM (series often up to 57.5 µM), for inactives: at the top dose activity change, negative = inhibition, hits mostly inhibitors; note: potency is the fitted concentration of half-maximal effect; % is set by controls: 0 for no effect and ±100 for the full control effect
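The enzyme phosphorylates galactose (100 uM) using ATP (35 uM); inhibition is detected as higher residual ATP, quantified by bioluminescence after 1 h reaction at room temperature, pH 8.0.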
Nrf2 inh – Nrf2 pathway inhibition | Potency, µM (series often up to 46 µM), inactives show at the highest dose activity change, negative = inhibition, hits mostly inhibitors | A549 ARE-Fluc reporter, luciferase luminescence, 18-24 h | 2.1% of 360,000 active; note: potency is the fitted concentration of half-maximal effect; % is set by controls: 0 for no effect and ±100 for the full control effect; nearly all actives have a fitted effect of over 60% in size
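Reporter: ARE-Fluc in A549. Exposure: 18-24 h, 37 °C, 5% CO2, 5% FBS OPTI-MEM. Readouts: fluorescent cytotoxicity (CellTiter-Fluor), then luminescent Nrf2 signal after BugLite.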
A549 viability – kills or reduces viability of A549 cells in Nrf2 counter-screen | Potency, µM (top dose mostly 46 µM), without a hit: at the top dose activity change, negative = cytotoxicity, most hits filed as inhibitors | 0.16% of 390,000 active | A549 ARE-Fluc cells, CellTiter-Fluor viability, 18-24 h; note: potency is the fitted concentration of half-maximal effect; % is set by controls: 0 for no effect and ±100 for the full control effect
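A549 ARE_Fluc cells in 5% FBS OPTI-MEM were exposed to compounds in concentration-response for 18-24 h at 37 deg C. Viability was read by CellTiter-Fluor fluorescence (Ex 405/Em 525) after 30 min, before the luciferase read.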
The depositor's hits bear a star; [ ] = remark or other dose. Compounds with a hit are over-represented: about 2.2% of the library has one in this group of screens. Unless noted, calls come from the whole dose curve; as a rule, active = well fitted curve in the direction sought with a large enough effect; inconclusive = small, poorly fitted or top-dose-only effect, or another doubt; inactive = no such curve, though single readings can be large; an effect the other way counts as inactive or inconclusive.

CCCc1ccc(-c2cc(C(=O)N/N=C/c3ccc([N+](=O)[O-])o3)c3ccccc3n2)cc1 was read as PI4K2A block 2, Nrf2 ARE act 17%, miR-21 FLuc 22%, GALK inh 1%, Nrf2 inh 10µM* and A549 viability -21%.
Screening COc1ccc(-c2cc3c(nn2)-c2ccccc2C3=O)cc1 returned PI4K2A block -56*, Nrf2 ARE act -2%, miR-21 FLuc -12%, GALK inh 14%, Nrf2 inh inconclusive and A549 viability -9%.
For COc1ccc(C(=O)Nc2ccc(O)c3ccccc23)cc1 the results were PI4K2A block -6, Nrf2 ARE act inconclusive, Nrf2 inh inconclusive and A549 viability -2%.
`COc1ccc(C(=O)Nc2noc3ccccc23)cc1` gave PI4K2A block -73*, Nrf2 ARE act -2%, miR-21 FLuc inconclusive, Nrf2 inh inconclusive and A549 viability -1%.
`CC1CCCN(c2nc(NCc3ccco3)nc(N)c2[N+](=O)[O-])C1` (stereo not drawn) gave PI4K2A block -6, Nrf2 ARE act 20%[9.22 µM], miR-21 FLuc 4%, GALK inh 0%, Nrf2 inh 18µM* and A549 viability 1%.
CC1CC(C)CN(c2nc(NCc3ccco3)nc(N)c2[N+](=O)[O-])C1 (stereo not drawn) was read as PI4K2A block 6, Nrf2 ARE act 22%, miR-21 FLuc 2%, GALK inh 1%, Nrf2 inh 23µM* and A549 viability -25%.
Nc1nc(NCc2ccco2)nc(N2CCOCC2)c1[N+](=O)[O-] was read as PI4K2A block 1, Nrf2 ARE act inconclusive, miR-21 FLuc 6%, GALK inh -1%, Nrf2 inh inconclusive and A549 viability -8%.
`COc1ccc(C2c3c(N)nc(CCCc4ccccc4)nc3Oc3ccc4ccccc4c32)cc1OC` (stereo not drawn) gave Nrf2 inh -9% and A549 viability -11%.
CC(=O)Nc1ccccc1OC1=N[S+](=O)([O-])c2ccccc21 was read as Nrf2 inh 11% and A549 viability 10%.
C[C@H]1[C@@H](OC(=O)Nc2ccccc2Cl)CC[C@@]23CCCN2C(=O)CCC[C@@H]13 was read as PI4K2A block 3.
Screening O=S1(=O)CC2c3ccc(F)cc3CN2CN1CCc1ccccc1 (stereo not drawn) returned PI4K2A block -4.
Screening Fc1ccccc1/C=C1\CCCC2=C1NC(=S)NC2c1ccccc1F (stereo not drawn) returned PI4K2A block -2, Nrf2 ARE act 3%, miR-21 FLuc 4%, GALK inh 7%, Nrf2 inh 8.2µM* and A549 viability -13%.
`COc1cc(N/N=C/c2ccc(N(C)C)cc2)ncn1` gave PI4K2A block -53*, Nrf2 ARE act 0%, miR-21 FLuc -65%, GALK inh -6%, Nrf2 inh inconclusive and A549 viability 3%.
`COc1cc(N/N=C/c2ccccc2O)ncn1` gave PI4K2A block -10, Nrf2 ARE act 2%, miR-21 FLuc -23%, GALK inh 0%, Nrf2 inh 19% and A549 viability 0%.
CN(C)S(=O)(=O)Oc1ccsc1C(=O)Nc1ccc(C(F)(F)F)cc1 was read as PI4K2A block -3, Nrf2 ARE act inconclusive, miR-21 FLuc -1%, GALK inh -4%, Nrf2 inh -12% and A549 viability 4%.
For CN(C)S(=O)(=O)Oc1ccsc1C(=O)Nc1ccc(Br)cc1 the results were PI4K2A block -1, Nrf2 ARE act 11%, miR-21 FLuc 8%, GALK inh 9%, Nrf2 inh 21µM* and A549 viability inconclusive.
`Cc1ccc(-c2cc(-c3ccco3)c(C#N)c(=O)[nH]2)cc1` gave PI4K2A block -2, Nrf2 ARE act 8%, miR-21 FLuc 0%, GALK inh 3%, Nrf2 inh -13% and A549 viability -8%.
N#Cc1c(-c2ccco2)cc(-c2ccccc2)[nH]c1=O was read as PI4K2A block -29, Nrf2 ARE act 2.5µM*, miR-21 FLuc 2%, GALK inh 2%, Nrf2 inh -54% and A549 viability 1%.
CCCCN(C)C(=O)c1ccc2c(c1)NC(=O)C(C)(C)O2 was read as PI4K2A block 5.
`CC(=O)Nc1ccc(S(=O)(=O)N2CCC(c3nc4ccc(C)cc4[nH]3)CC2)cc1` gave PI4K2A block 3, Nrf2 ARE act 1%, miR-21 FLuc 13%, GALK inh 6%, Nrf2 inh -27% and A549 viability 2%.

4 structures already listed, ordered by molecular weight, smallest number first:
N#Cc1c(-c2ccco2)cc(-c2ccccc2)[nH]c1=O was read as PI4K2A block -29, Nrf2 ARE act 2.5µM*, miR-21 FLuc 2%, GALK inh 2%, Nrf2 inh -54% and A549 viability 1%.
`COc1ccc(C(=O)Nc2noc3ccccc23)cc1` gave PI4K2A block -73*, Nrf2 ARE act -2%, miR-21 FLuc inconclusive, Nrf2 inh inconclusive and A549 viability -1%.
CC1CC(C)CN(c2nc(NCc3ccco3)nc(N)c2[N+](=O)[O-])C1 (stereo not drawn) was read as PI4K2A block 6, Nrf2 ARE act 22%, miR-21 FLuc 2%, GALK inh 1%, Nrf2 inh 23µM* and A549 viability -25%.
`COc1ccc(C2c3c(N)nc(CCCc4ccccc4)nc3Oc3ccc4ccccc4c32)cc1OC` (stereo not drawn) gave Nrf2 inh -9% and A549 viability -11%.

Next results.
For CC(C)(C)c1ccc(S(=O)(=O)N2CCC(c3nc4ccc(Cl)cc4[nH]3)CC2)cc1 the results were PI4K2A block -4, Nrf2 ARE act 4%, miR-21 FLuc 14%, GALK inh 0%, Nrf2 inh 16µM* and A549 viability inconclusive.
Screening Cc1onc(-c2ccccc2Cl)c1C(=O)NCc1cccnc1 returned PI4K2A block 0, Nrf2 ARE act 1%, miR-21 FLuc -4%, GALK inh -6% and A549 viability 6%.
`CC(=O)c1c(C)oc2c1C(=O)c1ccccc1C2=O` gave PI4K2A block 2, Nrf2 ARE act 0%, miR-21 FLuc -5%, GALK inh -1%, Nrf2 inh 4% and A549 viability 1%.
`Cc1oc2c(c1C(=O)NCc1cccnc1)C(=O)c1ccccc1C2=O` gave PI4K2A block -8, Nrf2 ARE act -5%, miR-21 FLuc inconclusive, GALK inh 0%, Nrf2 inh 5.2µM* and A549 viability 2.6µM*.
For COc1ccc(CNC(=O)c2c(C)oc3c2C(=O)c2ccccc2C3=O)cc1 the results were PI4K2A block -10, Nrf2 ARE act -5%, miR-21 FLuc -5%, Nrf2 inh 4.1µM* and A549 viability 4.6µM*.
C[C@H](NS(=O)(=O)c1ccc([N+](=O)[O-])cc1)C(=O)NCCNC(=O)[C@@H](C)NS(=O)(=O)c1ccc([N+](=O)[O-])cc1 was read as PI4K2A block -2.
For COc1ccc(C=Nn2c(-c3n[nH]c4c3CCC4)n[nH]c2=S)cc1OCc1ccccc1 the results were PI4K2A block 0.
For Cc1ccc(-c2nc(C3CCCN(S(=O)(=O)c4ccc(Cl)s4)C3)no2)cc1 (stereo not drawn) the results were PI4K2A block -9.
